Reference: patent US12396984B2, “Managing microbial dysbiosis with temocillin” (Entasis Therapeutics, Inc., priority 2019, dated 2025)
Values after ≈ are worked out from the molar mass of the structure shown.

Tested on: ATCC 12290 Bacteroides thetaiotaomicron
Assay: microbe, parasite or virus in culture
Type: cell-based
Conditions: ATCC12290

## O=C(O)c1cn(C2CC2)c2cc(N3CCNCC3)c(F)cc2c1=O [Ciprofloxacin]
  MIC: 1 µg/mL (≈ 3.02 µM)
